From ChEMBL document CHEMBL1811912, “Human HDAC isoform selectivity achieved via exploitation of the acetate release channel with structurally unique small molecule inhibitors” (Bioorg Med Chem, 2011)

Biological target: T1, Histone deacetylase 8 (Homo sapiens, UniProt Q9BY41)
T1 sequence (Q9BY41 whole entry): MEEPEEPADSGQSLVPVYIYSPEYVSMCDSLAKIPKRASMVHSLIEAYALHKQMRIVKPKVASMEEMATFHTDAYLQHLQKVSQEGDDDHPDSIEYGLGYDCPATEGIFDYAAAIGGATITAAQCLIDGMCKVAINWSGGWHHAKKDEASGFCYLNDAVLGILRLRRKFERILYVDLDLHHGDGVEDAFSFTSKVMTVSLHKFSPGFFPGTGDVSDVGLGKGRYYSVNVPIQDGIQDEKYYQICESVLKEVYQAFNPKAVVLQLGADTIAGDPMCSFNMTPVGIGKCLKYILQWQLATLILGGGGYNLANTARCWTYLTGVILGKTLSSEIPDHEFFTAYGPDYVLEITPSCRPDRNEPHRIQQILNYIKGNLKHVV
Assay: Inhibition of N terminal hexahistidine-tagged human HDAC8 expressed in Sf9 cells after 1 hr by fluorescence assay

SMILES: N[C@H](Cc1ccc(Cl)cc1Cl)C(=O)N1Cc2ccccc2C1
- IC50: 90 nM
